Data taken from patent US20140336159A1, “METHODS FOR TREATING AND DIAGNOSING RESPIRATORY TRACT INFECTIONS” (PULMATRIX, INC., priority 2011, published 2014).

System: LPS stimulated peritoneal macrophages
Conditions: compared to untreated (0) cells

[Ca+2].[Cl-].[Cl-] [calcium chloride]
gene expression of IP-10, ENA78, GM-CSF and MIP-2: significantly reduced
